Yeast mating assay B: variants of the scFv Ab-14

Values reported by Li et al. 2023, doi:10.1038/s41467-023-39022-2 (FLAb copy).

Target: peptide PDVDLGDISGINAS, taken from heptad repeat 2 (HR2) of SARS-CoV-2 spike.

Ab-14 is the parent antibody, in scFv form: VH, then a (GGGGS)3 linker, then VL. The heavy chain is unchanged in all variants.
VH: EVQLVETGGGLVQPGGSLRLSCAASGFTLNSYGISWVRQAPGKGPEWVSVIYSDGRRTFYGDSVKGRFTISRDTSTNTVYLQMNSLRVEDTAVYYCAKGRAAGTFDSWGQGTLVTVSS
VL: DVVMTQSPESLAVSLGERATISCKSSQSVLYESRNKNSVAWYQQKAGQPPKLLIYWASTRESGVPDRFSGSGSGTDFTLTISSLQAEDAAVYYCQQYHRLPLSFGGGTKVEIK

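Designed CDR sequences, proposed from the first random library and measured here. Group labels follow the data file (Ctrl: baseline library sampled from a position-specific scoring matrix, with some repeated check sequences; Rand: our label for a block that the file lists under HC and that is probably the random mutants of the ten best first-round binders; GP: Gaussian process model; HC: hill climbing; Gen: genetic algorithm; Gibbs: Gibbs sampling; a sequence that several methods proposed may carry one label only). Affinity was read by AlphaSeq, a pooled yeast mating assay with surface-displayed partners. Pairs that bind mate more often; barcode pairs of the diploids are counted by sequencing. The ratio of observed to expected reads was calibrated, replicate by replicate, on BCL2-family standards whose Kd was known from biolayer interferometry. Each pool was mated in six replicate cultures.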

Each variant is given by its three light chain CDRs, as the data file delimits them; those of the parent are KSSQSVLYESRNKNSVA, WASTRES, QQYHRLPLS. This list holds designs with at most six substitutions. Each Kd is an estimate from the mating assay, the geometric mean of the replicates in which the pair was seen; lower is stronger. Where no diploid with the target was found in any replicate, the entry reads "nd": below detection, most likely a poor binder, though not proof of it. Some sequences occur more than once in the pool; their replicates are pooled. The authors averaged sequences with at least three values out of six and counted those with two or fewer as poor binders. Of ten entries with the parent sequence, four were seen in most replicates (averages 2.2 nM to 240 nM), three in one and three in none, so single entries are noisy. The range of this assay differs from that of the first round, and the authors advise against merging the two. Nonspecific signal, from three strains lacking the peptide, appeared in 4% of pairings of all light chain designs, centred on 430 nM (5% of these signals below 38 nM); values are not corrected for it. Also given: how often the same scFv was detected with the empty control strains.

With KSSQSVVYESRNKNSVA | EASTRES | QQYHRLPLS [Ctrl] the result was 2.2 nM (6 of 6 replicates; controls 0 of 18). Variant KISQSELYESRNKNSVA | NGSTRES | QQYHRLPLS [GP_Gen] gave 1.2 nM (6 of 6 replicates; controls 4 of 18). For KQSQSVLFEWRNKNSVA | DASTRES | QQYHRLPLS [GP_HC], the assay gave 660 pM (6 of 6 replicates; controls 0 of 18). With KLPQSVLYESRVKNSVA | NASTRES | QQYHRLPLS [GP_Gen] the result was 540 pM (6 of 6 replicates; controls 1 of 18). Variant KMSQSVLYESDNTNPVA | WASTRES | QQYHRLPWS [Ctrl] gave 17 nM (6 of 6 replicates; controls 0 of 18). Variant LSSQSDLYEERNNNSVA | AASTRES | YQYHRLPLS [Ctrl] showed 5.9 µM (1 of 6 replicates; controls 2 of 18).

Variant KFSQSVLYESRDKNSVA | WASTRES | DQYHRLPLS [Ctrl] gave 190 nM (8 of 30 replicates; controls 1 of 90). For KSSQSVLDESRNDNSVA | WASTRNS | QQYHRLPLS [Ctrl], the assay gave 19 nM (6 of 6 replicates; controls 0 of 18). Variant KDSQSVLYESTNKNSVA | WASTRES | QQYHRLPLS [Ctrl] showed 1.6 µM (5 of 6 replicates; controls 2 of 18). Variant KSMQSVLSESRNKNSVA | WASTRES | QQYHRLPLS [Ctrl] gave 400 nM (5 of 6 replicates; controls 1 of 18). Variant KSSQSVLYESRNKNSVA | NGSTREM | QQYDGLPLS [Ctrl] showed 41 nM (6 of 6 replicates; controls 6 of 18). With KMSQSVLYESHNKNSVA | NASTRMS | QQYHRLPLS [GP_HC] the result was 2.6 nM (6 of 6 replicates; controls 1 of 18).

Variant KSGQGVFYESRNKNSCA | GASTRES | QQTHRLPLS [Rand] gave 95 nM (1 of 6 replicates; controls 0 of 18). For KSEQSVLYESRNKHSVA | AASTREV | QQYHRLPLS [Ctrl], the assay gave 6.1 nM (6 of 6 replicates; controls 1 of 18). Variant KSSQEVLYESRNKNSVA | SASTRES | QQYHRLPLS [Ctrl] gave 3.3 nM (6 of 6 replicates; controls 0 of 18). With KSSQSVLYESSNKNSVA | WASTRES | QQYHRYPLS [Ctrl] the result was 190 nM (2 of 6 replicates; controls 0 of 18). Variant KLSMSVWYEARMKNSVA | EASTRES | QQYHRLPLS [GP_Gibbs] showed 2.0 nM (6 of 6 replicates; controls 1 of 18). For KLPQSWLYESRNKNSVA | NASQRES | QQYHRLPLS [GP_Gen], the assay gave 380 pM (6 of 6 replicates; controls 2 of 18).

For KDSQSVLYESRNKNSVA | WASTRES | QQYHRLPLS [Ctrl], the assay gave 140 nM (4 of 6 replicates; controls 1 of 18). With KSSWSVLNESRNKNSVA | DASTRMS | QQYHRLPLS [GP_HC] the result was 2.8 nM (6 of 6 replicates; controls 1 of 18). For KLEQSEGYESRNKNSVA | NASQRES | QQYHRLPLS [GP_Gen], the assay gave 2.4 nM (6 of 6 replicates; controls 2 of 18). Variant KLPQSTLYESRNKNSVA | NASQRES | QQYHRLPLS [GP_Gen] showed 1.0 nM (6 of 6 replicates; controls 0 of 18). Variant KVSISYLGESRNKNSVA | EASTREG | QQYHRLPLS [GP_HC] gave 920 pM (5 of 6 replicates; controls 0 of 18). Variant KSSQSVLTESRNKNSVA | WASTRES | QQYHRLPLS [Ctrl] gave 81 nM (5 of 6 replicates; controls 1 of 18).

With KSSQSKLYQSHNKNSVA | WASTRES | QQYHRLPLS [Ctrl] the result was 10 nM (6 of 6 replicates; controls 0 of 18). For FISQSVEYESRDKNSVA | NASTRLS | QQYHRLPLS [GP_Gibbs], the assay gave 1.0 nM (6 of 6 replicates; controls 2 of 18). Variant KVEQSQLYESRNKNSVA | NASTRES | QQYHRLPLS [GP_Gen] gave 2.7 nM (6 of 6 replicates; controls 0 of 18). With KSSQSVLWEERNKNSFA | GASTRES | QQYHRLPWS [Ctrl] the result was nd (0 of 6 replicates; controls 3 of 18). With KSDQSVLKEWRNKNSVA | WASARVS | QQYHRLPLS [Ctrl] the result was nd (0 of 6 replicates; controls 0 of 18). Variant KLSQSMLYESRNKNSVA | QASTREE | GQYHRLPLT [GP_Gibbs] showed 1.0 nM (6 of 6 replicates; controls 2 of 18).

Variant KLYQSHLYESRNKNSVA | EASTRES | QQYHRLPLS [GP_Gen] showed 1.2 nM (6 of 6 replicates; controls 1 of 18). Variant KLSQSVEYESRNKNSVA | NASTRES | QQYHRLPLQ [GP_Gen] gave 2.9 nM (6 of 6 replicates; controls 1 of 18). Variant KLQQSWLYESRNKNSVA | WASTRES | QQYHRLPLS [Ctrl] showed 17 nM (6 of 6 replicates; controls 1 of 18). Variant KSSISYLYESENKQSVA | EASQRES | QQYHRLPLS [GP_HC] showed 2.8 nM (6 of 6 replicates; controls 2 of 18). Variant KLDQSGLYESRNKNSVA | NASTRES | QQYHRLPLS [GP_Gen] gave 570 pM (6 of 6 replicates; controls 1 of 18). With KSSQKVLWESNNKNSIA | YASTRES | QQYHRLPLS [Ctrl] the result was 85 nM (3 of 6 replicates; controls 0 of 18).

With KFSQSYLYESRNKNSVA | NASTRLS | QQYHRLPLS [GP_Gen] the result was 580 pM (6 of 6 replicates; controls 0 of 18). Variant KISQSVFYLSRNKNSVA | WASTRRS | QQYERLPLS [Ctrl] showed 180 nM (2 of 6 replicates; controls 0 of 18). For KSSQEVLYESRSKNSVA | AASTRES | QQYWRLPLS [Ctrl], the assay gave 2.2 nM (6 of 6 replicates; controls 0 of 18). With KVSQSVLYESRNWNSVA | NASTRES | QQYHRLPLS [GP_Gen] the result was 2.2 nM (6 of 6 replicates; controls 3 of 18). Variant KLSQSVLYESRNKNNVA | HASTRES | QQYHRLPLS [GP_Gen] gave 1.4 nM (6 of 6 replicates; controls 0 of 18). With KSSQQVLYESMNKNSVA | WASTRES | QTYHRLPLS [Ctrl] the result was nd (0 of 6 replicates; controls 1 of 18).

Variant KLSQSVLNESNNKNSVA | WASTRES | QQYHRLHLS [Ctrl] gave nd (0 of 6 replicates; controls 2 of 18). Variant KSQQSVLYESRNKNNVA | AASTRED | QQYARLPLS [GP_HC] showed 21 nM (3 of 6 replicates; controls 0 of 18). For KLQQSWGYESRNKNSVA | NASTRMS | QQYHRLPLS [GP_Gen], the assay gave 720 pM (6 of 6 replicates; controls 2 of 18). With KLPGSTLYESRNKNSVA | NASTRES | QQYHRLPLS [GP_HC] the result was 700 pM (6 of 6 replicates; controls 1 of 18). For KSSQSVMYESRNKNSVA | AASTRET | QQYHRLPLS [Ctrl], the assay gave 8.4 nM (2 of 6 replicates; controls 0 of 18). Variant KSSQSVLYESRFKNSVA | EASTREQ | QQYGRLPLS [Ctrl] showed 3.7 nM (6 of 6 replicates; controls 0 of 18).

Variant KSSQSMLYESRNKNSVA | QASFRED | QQYHRLPLS [Ctrl] gave 3.6 nM (6 of 6 replicates; controls 1 of 18).

5 of these entries, quoted again:

| CDR-L1 | CDR-L2 | CDR-L3 | group | Kd | seen in | empty controls |
|---|---|---|---|---|---|---|
| KSSISYLYESENKQSVA | EASQRES | QQYHRLPLS | GP_HC | 2.8 nM | 6/6 | 2/18 |
| KSEQSVLYESRNKHSVA | AASTREV | QQYHRLPLS | Ctrl | 6.1 nM | 6/6 | 1/18 |
| KSSQSVLYESRNKNSVA | NGSTREM | QQYDGLPLS | Ctrl | 41 nM | 6/6 | 6/18 |
| KLSQSVLYESRNKNNVA | HASTRES | QQYHRLPLS | GP_Gen | 1.4 nM | 6/6 | 0/18 |
| KLSQSVLNESNNKNSVA | WASTRES | QQYHRLHLS | Ctrl | nd | 0/6 | 2/18 |